Results on 3 compounds are retold here after US9695132B2, “Heteroaryl compounds and uses thereof” (Celgene CAR LLC, priority 2013, dated 2017).

The chains behind the UniProt entries cited, without tags or fusion partners. Residues count along the entry.
UniProt P22455, 22-802: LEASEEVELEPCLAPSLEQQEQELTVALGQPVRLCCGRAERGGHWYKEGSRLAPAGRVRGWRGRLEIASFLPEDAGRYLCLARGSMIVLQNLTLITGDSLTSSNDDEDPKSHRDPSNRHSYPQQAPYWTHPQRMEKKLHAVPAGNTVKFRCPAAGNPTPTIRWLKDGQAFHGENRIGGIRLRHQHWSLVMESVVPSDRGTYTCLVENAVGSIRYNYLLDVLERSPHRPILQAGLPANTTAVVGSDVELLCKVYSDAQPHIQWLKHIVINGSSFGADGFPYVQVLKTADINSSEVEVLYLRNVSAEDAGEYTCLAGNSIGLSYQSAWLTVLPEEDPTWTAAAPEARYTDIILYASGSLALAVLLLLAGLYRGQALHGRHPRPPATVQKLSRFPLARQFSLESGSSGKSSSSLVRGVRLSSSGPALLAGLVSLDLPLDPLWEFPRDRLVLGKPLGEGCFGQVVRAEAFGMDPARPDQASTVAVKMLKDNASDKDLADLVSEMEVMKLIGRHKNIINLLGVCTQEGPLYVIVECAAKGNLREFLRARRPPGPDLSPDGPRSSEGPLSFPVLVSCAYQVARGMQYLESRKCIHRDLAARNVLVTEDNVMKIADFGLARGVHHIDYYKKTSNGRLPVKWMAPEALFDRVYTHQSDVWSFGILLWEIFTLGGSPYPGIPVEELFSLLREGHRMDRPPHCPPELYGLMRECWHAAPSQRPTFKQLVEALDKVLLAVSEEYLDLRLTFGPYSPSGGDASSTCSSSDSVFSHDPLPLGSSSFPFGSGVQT

One test addresses FGFR4-WT (Homo sapiens (Human), UniProt P22455). Put plainly: Omnia assay for potency assessment against FGFR4 enzyme. The class given is biochemical. The protocol:
A 10× stock solution of FGFR4-WT (PR4380C), (from Invitrogen, Carlsbad, Calif.) corresponding to method a in Table 7, was prepared as described below. Alternatively, a 10× stock solution of FGFR4-WT (F01-11G), (SignalChem, Richmond, BC) corresponding to method b in Table 7, was prepared as described below. A solution of 1.4×ATP (AS001A) and 5× Tyr-Sox conjugated peptide substrate (KNZ3101) were prepared in 1× kinase reaction buffer consisting of 20 mM Tris, pH 7.5, 5 mM MgCl2, 1 mM EGTA, 5 mM β-glycerophosphate, 5% glycerol (10× stock, KB002A) and 0.2 mM DTT (DS001A). […] The serially diluted compounds were prepared on a Tecan EVO100. A second addition of 10 μl of Tyr-Sox FGFR4 substrate was added to each well and the kinase reactions were started with the addition of 35 μL of 1.4×ATP. The reactions were monitored every 71 seconds for 240 minutes at λex360/λem485 in a Synergy plate reader from BioTek (Winooski, Vt.).

In the next test the target is pFGFR4 in Huh7 cells (Homo sapiens (Human), UniProt P22455). The test is described as follows: FGFR4 signaling, Meso Scale assay (MSD), Method B, Huh7.

`C=CC(=O)NC1CCCCC1Nc1ncc2c(n1)N(C)C(=O)N(c1c(Cl)c(OC)cc(OC)c1Cl)C2` (racemic) [Compound I-19]: the concentration for half-maximal inhibition (IC50) (as a rule, the point on the concentration scale where inhibition reaches its midpoint) on FGFR4-WT lay within 0.101 to 0.5 µM.

Turning to `C=CC(=O)Nc1ccccc1Nc1ncc2c(n1)N(C1CCN(CC)CC1)C(=O)N(c1cc(OC)cc(OC)c1)C2` [Compound I-80], the EC50 – broadly, the midpoint of the concentration-response curve – on pFGFR4 in Huh7 cells is greater than 1 µM.

As for `C=CC(=O)Nc1ccccc1Nc1ncc2c(n1)N(C1CCNCC1)C(=O)N(c1cc(OC)cc(OC)c1)C2` [Compound I-81], on pFGFR4 in Huh7 cells, the EC50 is greater than 1 µM.
